From ChEMBL document CHEMBL1156238, “Allosteric inhibitors of hepatitis C virus NS5B polymerase thumb domain site II: structure-based design and synthesis of new templates” (Bioorg Med Chem, 2010)

System: Hepatitis C virus
Experiment: Antiviral activity against HCV infected in human HBI10A cells
Format: functional, organism-based, Hepacivirus hominis

O=C1c2cccc3c(NCCO)ccc(c23)C(=O)N1c1cccc(Br)c1
EC50: 7.1 µM
